# Melting point values, as collected for the OPERA models

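The OPERA project collected these measurements from public sources as training and test data for property models. The files give a single number for a compound and property, which may rest on several reports. Conditions of the individual experiments are not part of the data. Where a salt, mixture or single isomer is drawn, the source does not say that exactly this form was tested. Some upstream entries may be estimates or bounds without being marked so.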

Melting points are in °C. Cells with "–" have no entry in this list. "via" names the databases from which the curators took the value.

structure (SMILES)	name	mp (°C)	via
CCOc1ccc(C(=O)O)cc1OC	4-Ethoxy-m-anisic acid	200	OCHEM
O=C(Nc1ccc(O)cc1)c1cccs1	N-(4-hydroxyphenyl)thiophene-2-carboxamide	167	OCHEM
NC(=O)COc1ccc(C(=O)O)cc1	4-(2-amino-2-oxoethoxy)benzoic acid	274	OCHEM
Nc1nc(-c2ccco2)cs1	4-(Furan-2-yl)-1,3-thiazol-2-amine	110	OCHEM
S=c1[nH]nc(-c2ccncc2)n1-c1ccccc1	4-Phenyl-5-pyridin-4-yl-4H-[1,2,4]triazole-3-thiol	291	OCHEM
NNC(=O)c1ccc2ccccc2n1	Quinoline-2-carbohydrazide	134	OCHEM
Cc1ccc(-c2nc(N)sc2C)cc1	5-methyl-4-(4-methylphenyl)-1,3-thiazol-2-amine	174	OCHEM
O=C(O)COc1ccc2c(c1)CCC2	Acetic acid, ((2,3-dihydro-1H-inden-5-yl)oxy)- (9CI)	155	OCHEM
CCC(CCCO)(C(=O)O)C(=O)O	2-Ethyl-2-(3-hydroxypropyl)propanedioic acid	132	eChemPortal
CN1C(=O)c2ccc(C(=O)O)cc2C1=O	2-methyl-1,3-dioxoisoindoline-5-carboxylic acid	174	OCHEM
CCc1cccc(OCC(=O)O)c1	2-(3-ethylphenoxy)acetic acid	68	OCHEM
O=C(O)CN1CCCC1=O	(2-oxopyrrolidin-1-yl)acetic acid	130	OCHEM
O=S1(=O)C=CC(Br)C1 (stereo not drawn)	Thiophene, 3-bromo-2,3-dihydro-, 1,1-dioxide	54.5	OCHEM
CCOC(=O)c1c[nH]n2c1nc(=O)c1ccccc12	–	202	OCHEM
Cc1ccc(S(N)(=O)=O)cc1C(=O)O	2-methyl-5-sulfamoylbenzoic acid	182	OCHEM
CC(=O)OCCCCCCC(C)C	Acetic acid, isononyl ester	-26	eChemPortal
O=S(=O)(Cl)c1cnc(Cl)nc1Cl	2,4-Dichloropyrimidine-5-sulfonyl chloride	97	OCHEM
O=C(O)CCn1nnc2ccccc2c1=O	3-(4-oxo-1,2,3-benzotriazin-3(4H)-yl)propanoic acid	196	OCHEM
CC(C)(C)OC(=O)N1CCN(C(N)=O)CC1	tert-Butyl 4-carbamoylpiperazine-1-carboxylate	176	OCHEM
COc1ccc(Nc2n[nH]c(=S)s2)cc1	5-(4-Methoxyanilino)-1,3,4-thiadiazole-2(3H)-thione	185	OCHEM
CNS(=O)(=O)c1ccc(N)cc1	N'-Methylsulfanilamide	111	OCHEM
NNC1=c2cc(Cl)cc(Cl)c2=NC1=O	5,7-Dichloro-3-hydrazono-1,3-dihydro-indol-2-one	262	OCHEM
O=C(O)CCc1nc2ccccc2s1	3-(1,3-benzothiazol-2-yl)propanoic acid	98	OCHEM
O=C(O)CCc1nc2ccccc2o1	3-(1,3-benzoxazol-2-yl)propanoic acid	111	OCHEM
Nc1nnc(SCC(=O)O)s1	[(5-Amino-1,3,4-thiadiazol-2-yl)sulfanyl]acetic acid	197	OCHEM
O=C1C=CC(=O)N1C1CC1	1-cyclopropyl-1H-pyrrole-2,5-dione	55	OCHEM
Cc1cc(C)c(C(=O)O)c(=O)[nH]1	2-hydroxy-4,6-dimethylnicotinic acid	235	OCHEM
COc1ccccc1C(C)O (stereo not drawn)	1-(2-Methoxyphenyl)ethan-1-ol	-85.1	OCHEM
O=C(O)CCCn1c(=O)oc2ccccc21	4-(2-Oxo-benzooxazol-3-yl)-butyric acid	142	OCHEM
O=Cc1cc(Br)ccc1OCC(=O)O	2-(4-bromo-2-formylphenoxy)acetic acid	171	OCHEM
O=[N+]([O-])c1ccc(-c2nnc(CCl)o2)cc1	2-(Chloromethyl)-5-(4-nitrophenyl)-1,3,4-oxadiazole	129	OCHEM
COC1CC[C@]2(O1)[C@H]1C[C@H]1[C@H]1[C@@H]3C=CC4=CC(=O)CC[C@]4(C)[C@H]3CC[C@@]12C (some centres undefined)	–	145	eChemPortal
OC(CCl)(CCl)c1ccc(F)cc1F	–	57	eChemPortal
NCC1(Nc2ccccc2)CCCCC1	N-[1-(Aminomethyl)cyclohexyl]aniline	62	OCHEM
N#Cc1cc2c(nc1Cl)CCCC2	2-chloro-5,6,7,8-tetrahydroquinoline-3-carbonitrile	129	OCHEM
Nc1nnc(-c2ccccc2)o1	1,3,4-Oxadiazole, 2-amino-5-phenyl-	244	OCHEM

Values as listed in the OPERA 2.9 repository of K. Mansouri.